This note sets out measurements from patent publication US11096980B2, “Method of using glycyrrhiza plant-based preparation to reduce toxic effect of polypeptide fungitoxin” (priority 2016, dated 2021).

In this data set the test system is IPEC-J2 cells. Kind of data set: TEER cell culture assay: protective effect against polypeptide fungitoxins. It is filed as cell-based, porcine. The following applies: toxin 0.2-10 μM added on day 8. The procedure: In order to test the correlations of polypeptide fungitoxins on epithelial tissue under controlled conditions, in vitro studies were performed. Therein, well-characterized test systems based on cell cultures and described in the literature were employed. For feed additives, epithelial cells from the respective organ in question, e.g. in the present case IPEC-J2 cells from the porcine intestine, were preferred. The used epithelial cells from the porcine intestine offer the advantage of being non-transformed cells still having all the important properties of normal intestinal cells and large physiological similarities such as the formation of viable tight junction proteins, which are above all essential for the intestinal barrier, as well as the expression of characteristic enzymes and transport systems (e.g. P-glycoprotein, cytochrome P450 3A4, vit. B 12 transporters etc.).
For the in vitro examinations of a Glycyrrhiza dry extract, the latter was extracted once again, thus producing a secondary Glycyrrhiza extract. […]
Differentiated cells form a cell barrier, being strongly interconnected by tight junction proteins. […] The intactness of the cell barrier is measured by means of a volt-ohmmeter: The electrical resistance between the two compartments is referred to as TEER (transepithelial electrical resistance) value and represented in kOhm×cm^2. […]

For beauvericin, the “TEER value after addition of toxin (negative control)” value was “lowered”.
